Reference: ChEMBL document CHEMBL4257536, “Pharmacophore-based tailoring of biphenyl amide derivatives as selective 5-hydroxytryptamine 2B receptor antagonists” (Medchemcomm, 2018)

Species on record: Homo sapiens
Test: Selectivity ratio of Ki for human 5HT1B receptor to Ki for human 5HT2B receptor
Method in brief: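 Ki values from radioligand displacement run in triplicate, using [3H]GR127543 for 5-HT1B and [3H]LSD for 5-HT2B. The ratio compares the 5-HT1B Ki to the 5-HT2B Ki.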

- Ratio Ki: > 750
SMILES: O=C(NCCc1c[nH]c2ccccc12)C1CCN(C(=O)c2ccc(-c3ccccc3)cc2)CC1
